A short description of this data set: logP determination (neutral / HCOOH).

Our source for the logP (HCOOH) values is patent publication US9066518B2, “Heterocyclic compounds as pesticides” (Bayer CropScience AG, priority 2009, dated 2015).

In turn, “2-(6-cyanopyridin-2-yl)-3-dimethylaminoallylidene]dimethylammonium hexafluorophosphate” returned a logP (HCOOH) of -0.07.
